Experimental data reported in US11059801B2.
Where two headings read alike, the source gives them in different places. Values belong to the molecule of their own block, whether it stands above or below them.

Amino acid sequences for entries named in this document (tags omitted). A change or cut given only in a name is not applied to a line headed by its entry.
UniProt P62942, whole entry, looked up: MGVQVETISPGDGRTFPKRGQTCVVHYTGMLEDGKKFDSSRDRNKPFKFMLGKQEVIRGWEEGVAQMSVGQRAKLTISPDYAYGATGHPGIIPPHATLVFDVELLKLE

Tests used:
[1] = target: GST-FKBP12 (36V) (Homo sapiens (Human), UniProt P62942, F36V); test: FKBP12 Ligand-Displacement AlphaScreen Assay (36V); assay type: binding
[2] = target: fusion of FKBP12 to nanoluciferase (Homo sapiens (Human), UniProt P62942+Q96SW2); test: FKBP Dual Luciferase Assay (FKBP12); assay type: cell-based; conditions: 4 hours; for Dmax: read-out: Max Degradation (dual luciferase, %) FKBP
[3] = target: T1, FKBP12 (Homo sapiens (Human), UniProt P62942); conditions: MV4-11, 18 h
[4] = target: fusion of mutant FKBP12 to nanoluciferase (Homo sapiens (Human), UniProt P62942+Q96SW2, F36V); test: FKBP Dual Luciferase Assay (mutant FKBP12, 36V); assay type: cell-based; conditions: FKBP 36V, 4 hours; for Dmax: read-out: Max Degradation (dual luciferase, %) FKBP 36V;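 as to all read-outs here: cells exposed to rising degrader concentrations, FKBP12 fusion level read as NLuc/FLuc signal ratio, lower ratio means more degradation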
[5] = target: T1, FKBP12; conditions: 18 h
[6] = target: BRD4 adjoined to nanoluciferase (Nluc) (Homo sapiens (Human), UniProt O60885+Q96SW2); test: BRD4 Dual Luciferase Assay
[7] = target: CRBN-DDB1/BRD4 (Homo sapiens (Human), UniProt O60885+Q96SW2); test: CRBN-DDB1/BRD4 Dimerization Assay;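 also: AlphaScreen proximity signal between GST-tagged BRD4 and CRBN-DDB1 with glutathione donor and nickel chelate acceptor beads, read after 1 hr compound incubation at room temperature, values from Gaussian curve fit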
[8] = Gaussian fit of dimerization signal

SMILES: CCC(C)(C)C(=O)C(=O)N1CCCC[C@H]1C(=O)O[C@H](CCc1ccc(OC)c(OC)c1)c1cccc(NC(=O)CCC(=O)NCCCOCCOCCOCCCNC(=O)COc2cccc3c2C(=O)N(C2CCC(=O)NC2=O)C3=O)c1 (some centres unmarked)
IC50 [1]: 174 nM
DC50 [2]: 26 nM
reduction of FKBP12 ([3]; 0.01 μM): 50%
reduction of FKBP12 ([3]; 0.1 μM): over 80%
DC50 [4]: 19 nM
Dmax [4]: 43%

reduction of FKBP12 ([3]; 0.01 μM): 50%
reduction of FKBP12 ([3]; 0.1 μM): over 80%
Dmax [4]: 35%
FKBP12 degradation in 293FT-CRBN−/− cells ([5]; 293FT-CRBN−/−): unaffected
SMILES: CCC(C)(C)C(=O)C(=O)N1CCCC[C@H]1C(=O)O[C@H](CCc1ccc(OC)c(OC)c1)c1cccc(NC(=O)CCC(=O)NCCCCNC(=O)COc2cccc3c2C(=O)N(C2CCC(=O)NC2=O)C3=O)c1 (some centres unmarked) [dFKBP-1]
FKBP12 degradation in 293FT-WT cells ([5]; 293FT-WT): potent, dose-dependent degradation of FKBP12

pDC50 (dual luc) [6]: 5.576
DC50 ([6]; read-out: BRD4 DC50 (nM) Dual Luciferase): 2660 nM
SMILES: Cc1sc2c(c1C)C(c1ccc(Cl)cc1)=N[C@@H](CC(=O)NCCCCNC(=O)CNc1cccc3c1CN(C1CCC(=O)NC1=O)C3=O)c1nnc(C)n1-2 (some centres unmarked) [dBET35]

SMILES: CC[C@H](C(=O)N1CCCC[C@H]1C(=O)O[C@H](CCc1ccc(OC)c(OC)c1)c1cccc(OCC(=O)NCCCOCCOCCOCCCNC(=O)COc2cccc3c2C(=O)N(C2CCC(=O)NC2=O)C3=O)c1)c1cc(OC)c(OC)c(OC)c1 (some centres unmarked) [c1FKBP*-7]
Dmax [2]: < 5%
Dmax [4]: 75%

SMILES: CC[C@H](C(=O)N1CCCC[C@H]1C(=O)O[C@H](CCc1ccc(OC)c(OC)c1)c1cccc(OCC(=O)NCCCCCCCCNC(=O)COc2cccc3c2C(=O)N(C2CCC(=O)NC2=O)C3=O)c1)c1cc(OC)c(OC)c(OC)c1 (some centres unmarked) [c1FKBP*-9]
Dmax [2]: < 5%
Dmax [4]: 65%

SMILES: CC[C@H](C(=O)N1CCCC[C@H]1C(=O)O[C@H](CCc1ccc(OC)c(OC)c1)c1cccc(OCC(=O)NCCCCNC(=O)COc2cccc3c2C(=O)N(C2CCC(=O)NC2=O)C3=O)c1)c1cc(OC)c(OC)c(OC)c1 (some centres unmarked) [c1FKBP*-6]
Dmax [2]: < 5%
Dmax [4]: 72%

SMILES: COC(=O)C[C@@H]1N=C(c2ccc(Cl)cc2)c2c(sc(C(=O)NCCCCNC(=O)COc3cccc4c3C(=O)N(C3CCC(=O)NC3=O)C4=O)c2C)-n2c(C)nnc21 (some centres unmarked) [dBET22]
Dimer Amplitude [7, 8]: 26153
Dimer Mean [7, 8]: −7.636
Dimer SD ([7]; Gaussian fit parameter of dimerization signal): 0.9644
Conc@Emax [6]: 50 µM
